Source: ChEMBL document CHEMBL3758129, “Design, synthesis and anti-HIV evaluation of novel diarylpyridine derivatives targeting the entrance channel of NNRTI binding pocket” (Eur J Med Chem, 2016)

Target: Human immunodeficiency virus type 1 reverse transcriptase (Human immunodeficiency virus 1, UniProt Q72547)
Experiment: Inhibition of HIV1 reverse transcriptase assessed as reduction in biotin-dUTP incorporation using poly(rA)-oligo(dT) as template/primer and digoxigenin-dUTP/biotin-dUTP/dTTP nucleotides incubated for 1 hr by ELISA

SMILES: Cc1cc(C#N)cc(C)c1Oc1nc(Nc2ccc(C#N)cc2)nc(N)c1Br [ETRAVIRINE]
- IC50: 3.1 µM
